{"source": "paper PMC4917822", "about": "“pH-Selective Cytotoxicity of pHLIP-Antimicrobial Peptide Conjugates” (Scientific Reports, 2016)", "key": {"[1]": {"experiment": "Chemical stability of pHLIP conjugates in cell media (HPLC, mass spectroscopy)", "format": "physicochemical", "settings": "10 μM conjugate in cell media, 2 h at pH 5.0 and 37 °C, every peak checked by mass spectroscopy (Figure S2)", "procedure": "Figure S2. Chemical Stability of pHLIP conjugates. HPLC traces of 10 µM pHLIP-(KLAKLAK)2 (A)\ncollected and checked by mass spectroscopy. In all cases, the conjugates were found intact\n(1 picture or pasted object on this page, not shown here)"}, "[2]": {"tested_on": "MDA-MB-231 breast cancer cells", "experiment": "Anti-proliferation assay (MTT) after 2 h treatment at pH 7.4 or 5.0", "format": "cell-based, Human", "procedure": "We have previously shown that this treatment protocol and pHLIP alone have no effect on MDA-MB-231 cell viability.\nFigure 2 Inhibition of cell growth. MDA-MB-231 cells treated with 4-amino acid pHLIP-KLAKS conjugates. Black columns represent cells treated at pH 7.4 and cells treated at low pH are shown in grey. For each condition, 3,000 cells/well (96-well plate) were seeded, allowed to adhere overnight, treated for 2 hours, washed once with media and cultured for 72 hour in complete medium at physiologic pH. Cell viability was assessed with the MTT assay. All measurements were normalized to the media control (0 μM, pH 7.4), as 100% cell viability. Results are shown as mean ± SEM (n = 9–12).\nFor each condition, 3,000 cells/well (96-well plate) were seeded, allowed to adhere overnight, treated for 2 hours, washed once with media and cultured for 72 hour in complete medium at physiologic pH. Cell viability was assessed with the MTT assay. All measurements were normalized to the media control (0 μM, pH 7.4), as 100% cell viability. Results are shown as mean ± SEM (n = 9–12). […]\nFigure 5 Effect of free peptides on cell viability. […] Cell viability was assessed with the MTT assay, and all measurements were normalized to the media control (0 μM, pH 7.4), as 100% cell viability. […]\nCells were seeded in 96-well plates at a density of 3,000 cells/well and incubated overnight. […] Treatment solutions were collected and their pH values measured using a micro-combination pH probe (Microelectrodes, Inc.). […] Cell viability was determined after 72 hours using the colorimetric MTT assay. […] The resulting formazan crystals were solubilized in 200 μL DMSO and the absorbance measured at 580 nm using an Infinite 200 PRO microplate reader (Tecan). Cell viability was calculated against control cells treated with media at physiologic pH. […]\nFigure S1. […] Cell viability was assessed with the MTT assay. […] (B) After the 2-hour treatment, cells were detached and counted based on trypan blue uptake with an hemacytometer: % of intact cells corresponds to the number of cells not showing any dye uptake over the total number of cells. […]"}, "[3]": {"tested_on": "MDA-MB-231 cells", "experiment": "Lactate dehydrogenase (LDH) release assay", "format": "cell-based, Human", "settings": "10 μM, 2 h at pH 7.4 or pH 5.0, mean ± SD, n = 3", "text": "First, we assessed the effect of the conjugates on the integrity of cell membranes based on the uptake of Trypan Blue, which can be taken up by cells only if their plasma membrane is disrupted. […] We also measured the release of the intracellular enzyme lactate dehydrogenase (LDH) after peptide treatment, as another method to evaluate plasma membrane damage. […] Importantly, it was previously shown that neither pHLIP alone nor low pH treatments disrupts membranes, including that of MDA-MB-231 cells[20][23] (Figure S1).\nFigure 4 Effect of free peptides and pHLIP-conjugates on Plasma Membrane Integrity and Lactate Dehydrogenase (LDH) Release. (A) The integrity of the plasma membrane is assessed by the uptake of trypan blue dye. […] Cells were detached and counted based on trypan blue uptake with an hemacytometer: % of intact cells corresponds to the number of cells not showing any dye uptake over the total number of cells. […] Cell media supernatant was monitored for the presence of LDH following treatment. […]\nFor the Trypan Blue plasma membrane integrity assays cells were seeded in 96-well plates at a density of 3,000 cells/well and incubated until confluent (~72 hours). […] After treatment, the media was removed, cells were detached using trypsin and counted based on trypan blue uptake using an hemacytometer. […] Percent LDH release was calculated against control cells treated with media at physiologic pH."}}}
{"smiles": "CC[C@H](C)[C@H](NC(=O)[C@@H]1CCCN1C(=O)[C@H](CC(N)=O)NC(=O)[C@H](CCC(N)=O)NC(=O)[C@H](CCC(=O)O)NC(=O)CNC(=O)CN)C(=O)N[C@@H](Cc1ccc(O)cc1)C(=O)N[C@@H](Cc1c[nH]c2ccccc12)C(=O)N[C@@H](C)C(=O)N[C@@H](CCCNC(=N)N)C(=O)N[C@@H](Cc1ccc(O)cc1)C(=O)N[C@@H](C)C(=O)N[C@@H](CC(=O)O)C(=O)N[C@@H](Cc1c[nH]c2ccccc12)C(=O)N[C@@H](CC(C)C)C(=O)N[C@@H](Cc1ccccc1)C(=O)N[C@H](C(=O)N[C@H](C(=O)N1CCC[C@H]1C(=O)N[C@@H](CC(C)C)C(=O)N[C@@H](CC(C)C)C(=O)N[C@@H](CC(C)C)C(=O)N[C@@H](CC(C)C)C(=O)N[C@@H](CC(=O)O)C(=O)N[C@@H](CC(C)C)C(=O)N[C@@H](C)C(=O)N[C@@H](CC(C)C)C(=O)N[C@@H](CC(C)C)C(=O)N[C@H](C(=O)N[C@@H](CC(=O)O)C(=O)N[C@@H](C)C(=O)N[C@@H](CC(=O)O)C(=O)N[C@@H](CCC(=O)O)C(=O)NCC(=O)N[C@H](C(=O)N[C@@H](CSSC[C@H](N)C(=O)N[C@@H](CCCCN)C(=O)N[C@@H](CC(C)C)C(=O)N[C@@H](C)C(=O)N[C@@H](CCCCN)C(=O)N[C@@H](CC(C)C)C(=O)N[C@@H](C)C(=O)N[C@@H](CCCCN)C(=O)N[C@@H](CCCCN)C(=O)N[C@@H](CC(C)C)C(=O)N[C@@H](C)C(=O)N[C@@H](CCCCN)C(=O)N[C@@H](CC(C)C)C(=O)N[C@@H](C)C(=O)N[C@@H](CCCCN)C(N)=O)C(=O)NCC(N)=O)[C@@H](C)O)C(C)C)[C@@H](C)O)[C@@H](C)O", "note": "[pHLIP-(KLAKLAK)2]", "values": [{"measurement": "chemical stability (degradation products by HPLC or mass spectroscopy)", "setting": "[1]", "result": "no degradation products"}, {"measurement": "cell growth inhibition (up to)", "setting": "[2]; low pH (5.0), highest inhibition over the concentration range tested (up to 10 μM), 2 h treatment, 72 h recovery", "result": "up to 85%"}, {"measurement": "IC50", "setting": "[2]; pH 5.0, 2 h treatment at 37 °C, 72 h recovery in complete medium at physiologic pH, sigmoidal dose-response fit, mean ± SEM, n = 9–12", "result": 1000, "unit": "nM"}, {"measurement": "effect on cell viability at physiological pH", "setting": "[2]; pH 7.4, up to 10 μM, 2 h treatment, 72 h recovery", "result": "little to no significant decrease in cell viability"}, {"measurement": "LDH release 2 and 24 hours after treatment", "setting": "[3]", "result": "no significant LDH release"}]}
